We go through one substance from publication PMC8418037, “Immunomodulatory effect of standardized C. asiatica extract on a promotion of regulatory T cells in rats” (BMC Complementary Medicine and Therapies, 2021).

Data set [1] is described as follows: In vivo tolerability: physical appearance, creatinine, AST, ALT, pre-dose vs 24 h post-dose. Conditions: n = 6. How it is done: (§1) Rats, weighing more than 400 g, were put in metabolic cages and fasted overnight with free access to water before experiments. […] The intravenous preparations were freshly dissolved in 20% DMSO/NSS for injection. The oral preparations were freshly prepared by suspending the test compound in 0.5% CMC. To reduce pain and injury during drug administration and blood collection, rats were anesthetized with 5% isoflurane by chamber induction. Serial blood samples (300 μL) were collected at 0, 5, 15, and 30 min, and at 1, 2, 4, 8, and 24 h after dosing. Blood samples were centrifuged at 5000 g for 10 min, and plasma was collected and stored at − 20 °C until analysis. Determination of aspartate transaminase (AST), alanine transaminase (ALT), and creatinine levels were performed at pre-dosing, and at 0 h and 24 h after dosing. Creatinine level was determined by enzymatic Roche Cobas 6000 analyzer. In this enzymatic method creatinine is converted to creatine under the activity of creatininase. Creatine is then acted upon by creatinase to form sarcosine and urea. Sarcosine oxidase converts sarcosine to glycine and hydrogen peroxide, and the hydrogen peroxide reacts with chromophore in the presence of peroxidase to produce a color product that is measured at 546 nm (secondary wavelength = 700 nm). This is an endpoint reaction that agrees well with recognized HPLC methods, and it has the advantage over Jaffe picric acid-based methods that are susceptible to interferences from non-creatinine chromogens. For tissue collection, the rats was euthanized with isoflurane after oral dosing the test compound at 100 mg/kg for 7 days. After the dead was confirmed, spleen and blood were immediately collected, washed with normal saline solution, and send to immunology laboratory for further experiments. The control group received oral gavage of 0.5% CMC as vehicle control. All animal procedures were complied with the ethical principles and guidelines for the use of animals (National Research Council of Thailand, 2015).
(§2) All pharmacokinetic parameters were computed by non-compartmental analysis using PK Solution 2.0 software (Summit Research Service, USA). […] The absolute oral bioavailability was calculated as (AUCp.o. ÷ dose p.o.) ÷ (AUCi.v. ÷ dose i.v.). Pharmacokinetic data are presented as mean ± standard deviation. Blood chemical parameters were analyzed by Mann–Whitney U-test to compare the significance of differences between pre-dosing and 24 h post-dosing, with a p-value of less than 0.05. All statistical analyses were calculated using SPSS version 16 (SPSS, Inc., USA). […] The data were analyzed with an unpaired Student’s t-test. A p-value of < 0.05 was considered statistically significant.

A short description of data set [2]: Plasma pharmacokinetics of asiaticoside and madecassoside (LC-MS/MS, non-compartmental analysis). As for the experimental part:
as §1
Protein precipitation by methanol was applied for preparation of LC-MS/MS samples. Briefly, plasma sample (50 μL) was mixed with 200 μL of methanol containing 10 ng of IS. The mixture was centrifuged at 10,000 g for 10 min and 10 μL of supernatant then injected for analysis by the LC-MS/MS system. Validation of the bioanalytical method of bioactive triterpenoid determination was based on previous study by our groups. In brief, LC-MS/MS was performed on a Nexera ultra high-performance liquid chromatograph and 8060 triple quadrupole mass spectrometers (Shimadzu Co., Ltd., Japan). The stationary phase was Synergi Fusion-RP C18 column (Phenomenex Inc., USA) with 40 °C oven temperature. The mobile phase was 100% methanol and 0.2% formic acid in water with gradient elution. The flow rate was 0.5 mL/min and the volume of injection 10 μL.
as §2

Where [3] appears, read: 24 h after dosing, asiaticoside IV 4 mg/kg, madecassoside IV 5 mg/kg, ECa 233 PO 100 mg/kg, mean ± SD.
The mark [4] stands for this setting: pre-dose baseline of the group, mean ± SD.
Setting [5] is: Asiaticoside 4 mg/kg IV, analyte asiaticoside.
[6] abbreviates: pure compound IV (asiaticoside 4.0 mg/kg, madecassoside 5.0 mg/kg).

For orientation: MRT means the average time that molecules of a dose stay in the body. By Vd is commonly meant the apparent volume that relates the amount in the body to the concentration in plasma or blood. In the case of asiaticoside, in data set [1] (setting [3]), the “ALT, Post-dose (24 h)” value stood at 27.40 ± 5.32 U/L; the “AST, Post-dose (24 h)” value was 54.80 ± 9.20 U/L; the “Creatinine, Post-dose (24 h)” value came to 0.61 ± 0.04 mg/dL. In addition, the “Physical appearance, Post-dose (24 h)” value in data set [1] (24 h after dosing, asiaticoside IV 4 mg/kg, madecassoside IV 5 mg/kg, ECa 233 PO 100 mg/kg) is “Normal”. Besides, in data set [1] (pre-dose baseline of the group, asiaticoside IV 4 mg/kg, madecassoside IV 5 mg/kg, ECa 233 PO 100 mg/kg), the “Physical appearance, Pre-dose (0 h)” value is “Normal”. In data set [1] (setting [4]), the “ALT, Pre-dose (0 h)” value amounted to 26.80 ± 3.83 U/L; the “AST, Pre-dose (0 h)” value came to 42.40 ± 14.54 U/L; the “Creatinine, Pre-dose (0 h)” value is given as 0.60 ± 0.03 mg/dL. In data set [2] (setting [5]), the AUC0-inf is 7605.43 ± 12,142.80 μg.h/L, the CL came to 37.5 ± 27.7 mL/min/kg, the mean residence time (MRT) is 44.4 ± 18.6 min and the T1/2 came to 58.8 ± 33.6 min. Moreover, the distribution volume (Vd) in data set [2] (setting [5]) is recorded as 3.27 ± 3.91 L/kg. Moreover, the AUC0-t in data set [2] (Asiaticoside 4 mg/kg IV, analyte asiaticoside, 0-24 h, mean ± SD, n = 6) is reported as 7588.69 ± 12,144.79 μg.h/L. Further, in data set [2] (setting [6]), the “Maximum plasma level after intravenous injection” value is listed as “approximately 3000 μg/L” and the “Plasma concentration at 8 h after dosing” value is recorded as “approximately 10 μg/L”.
